ChEMBL document CHEMBL5034024, “Peptidylarginine deiminases 4 as a promising target in drug discovery” (Eur J Med Chem, 2021)

Target: Protein-arginine deiminase type-4 (Homo sapiens, UniProt Q9UM07)
Experiment: Inhibition of PAD4 (unknown origin) by Fluopol-ABPP HTS assay

## NC1=CC(=O)c2ccc(-c3cccc(C(=O)O)n3)nc2C1=O
  IC50: 240 nM
